{"source": "PubChem BioAssay AID686978", "about": "(National Center for Advancing Translational Sciences (NCATS), 2013)", "note": "Only a part is listed here, and it is no random draw. Records with an inconclusive call do not appear. Some salts or complexes appear as unconnected parts, following the source record. Active and inactive are the calls of the source. Calls come from the whole dose curve; as a rule, active = well fitted inhibition curve with a large enough effect; inconclusive = small, poorly fitted or top-dose-only effect; inactive = flat fitted curve, though single readings scatter. % is set by controls: 0 for no effect and ±100 for the full control effect; potency is the fitted concentration of half-maximal effect.", "data": [{"experiment": "qHTS for Inhibitors of human tyrosyl-DNA phosphodiesterase 1 (TDP1): qHTS in cells in absence of CPT; note: nearly all actives have a fitted effect of over 55% in size", "settings": "DT40 Tdp1-/- hTDP1 cells, no CPT, ATP luminescence, 48 h; series mostly up to 46.2 µM; activity change, negative = growth inhibition: at the top concentration", "values": [{"smiles": "O=C(NCC1(N2CCCCC2)CCCCC1)c1cccc([N+](=O)[O-])c1", "activity change, negative = growth inhibition": "inactive: 7.25%"}, {"smiles": "N#CC1(Nc2ccccc2)CCN(CCc2ccccc2)CC1", "activity change, negative = growth inhibition": "inactive: 5.67%"}, {"smiles": "CCN1CCC(Nc2ccc(Cl)cc2)CC1", "activity change, negative = growth inhibition": "inactive: 11.1%"}, {"smiles": "O=C(NCC1(N2CCCCC2)CCCCC1)c1ccc(OC(F)F)cc1", "activity change, negative = growth inhibition": "inactive: -26%"}, {"smiles": "CN1CCN(CCOC(=O)C(O)(c2ccccc2)c2ccccc2)CC1", "activity change, negative = growth inhibition": "inactive: 1.25%"}, {"smiles": "COc1ccc(NC2CCN(C(=O)OC(C)(C)C)CC2)cc1", "activity change, negative = growth inhibition": "inactive: -29%"}, {"smiles": "COc1cc(C(=O)NCC2(N3CCCCC3)CCCCC2)ccc1OC(F)F", "activity change, negative = growth inhibition": "inactive: -8.39%"}, {"smiles": "O=C(NCC1(N2CCOCC2)CCCCC1)c1cc(=O)[nH]c2ccccc12", "activity change, negative = growth inhibition": "inactive: -26.9%"}, {"smiles": "O=C(NCC1(N2CCCCC2)CCCCC1)c1cccc(C(F)(F)F)c1", "activity change, negative = growth inhibition": "inactive: -22.5%"}, {"smiles": "CCN(CC)CCCNc1ccccc1[N+](=O)[O-].O=[N+]([O-])c1cc([N+](=O)[O-])c(O)c([N+](=O)[O-])c1", "activity change, negative = growth inhibition": "inactive: 1.44%"}, {"smiles": "COc1cc(OC)c(C(=O)NCC2(N(C)C)CCCCC2)cc1OC", "activity change, negative = growth inhibition": "inactive: 18%"}, {"smiles": "CN(C)c1cccc(C(=O)NCC2(N3CCCCC3)CCCCC2)c1", "activity change, negative = growth inhibition": "inactive: 0.0881%"}, {"smiles": "CC(C)c1ccc(NC2CCN(C(=O)OC(C)(C)C)CC2)cc1", "Potency": "active: 23.1 µM"}, {"smiles": "CCCOc1ccc(C(=O)NCC2(N(C)C)CCCCC2)cc1OC", "activity change, negative = growth inhibition": "inactive: -15.6%"}, {"smiles": "Cc1ccc(C(=O)NCC2(N(C)C)CCCCC2)o1", "activity change, negative = growth inhibition": "inactive: -6.19%"}, {"smiles": "CCCCOc1ccccc1C(=O)NCC1(N2CCOCC2)CCCCC1", "Potency": "active: 13 µM"}, {"smiles": "COc1ccc2c(c1O)-c1c(O)c(OC)cc3c1[C@H](C2)[N+](C)(C)CC3.O=[N+]([O-])c1cc([N+](=O)[O-])c([O-])c([N+](=O)[O-])c1[O-]", "activity change, negative = growth inhibition": "inactive: -3.33%"}, {"smiles": "O=C(NCC1(N2CCCCC2)CCCCC1)c1cncc(Br)c1", "activity change, negative = growth inhibition": "inactive: -0.666%"}, {"smiles": "CN1CCC(Nc2cccc(F)c2)CC1", "activity change, negative = growth inhibition": "inactive: -1.72%"}, {"smiles": "O=C(OC1CN2CCC1CC2)c1ccc([N+](=O)[O-])cc1", "note": "(configuration not stated)", "activity change, negative = growth inhibition": "inactive: -7.9%"}, {"smiles": "Cc1cccc(NC2(C#N)CCN(Cc3ccccc3)CC2)c1", "activity change, negative = growth inhibition": "inactive: -1.69%"}, {"smiles": "CSc1ccccc1C(=O)NCC1(N2CCCCC2)CCCCC1", "activity change, negative = growth inhibition": "inactive: -28.2%"}, {"smiles": "O=C(NCC1(N2CCCCC2)CCCCC1)c1cccs1", "activity change, negative = growth inhibition": "inactive: 3%"}, {"smiles": "O=C(NCC1(N2CCCCC2)CCCCC1)c1ccc(=O)[nH]c1", "activity change, negative = growth inhibition": "inactive: 16.4%"}, {"smiles": "CCOC(=O)N1CCC(Nc2ccc(OC)cc2)CC1", "activity change, negative = growth inhibition": "inactive: -28.8%"}, {"smiles": "O=C1C(O)=C([N+](=O)[O-])C(=O)C(O)=C1[N+](=O)[O-]", "activity change, negative = growth inhibition": "inactive: -0.0148%"}, {"smiles": "COc1ccc(Cl)cc1C(=O)NCC1(N2CCOCC2)CCCCC1", "Potency": "active: 16.4 µM"}, {"smiles": "O=C(OC1CN2CCC1CC2)C1c2ccccc2Oc2ccccc21", "note": "(configuration not stated)", "Potency": "active: 16.4 µM"}, {"smiles": "O=C(NCC1(N2CCCCC2)CCCCC1)c1ccc(Cl)s1", "activity change, negative = growth inhibition": "inactive: -25.6%"}, {"smiles": "N#CC1(Nc2ccccc2)CCN(Cc2ccccc2)CC1", "activity change, negative = growth inhibition": "inactive: -1.08%"}, {"smiles": "Cc1cc(C)cc(N(C(=O)c2ccccc2)C2CCN(C(=O)OC(C)(C)C)CC2)c1", "Potency": "active: 25.9 µM"}, {"smiles": "O=C(NCC1(N2CCCCC2)CCCCC1)c1ccc(Cl)nc1", "activity change, negative = growth inhibition": "inactive: 5.79%"}, {"smiles": "COc1ccc(NC2CCN(CCc3ccccc3)CC2)c(OC)c1", "activity change, negative = growth inhibition": "inactive: -13.3%"}, {"smiles": "CCOC(=O)N1CCC(Nc2ccc(F)cc2)CC1", "activity change, negative = growth inhibition": "inactive: 3.16%"}, {"smiles": "O=C(NCC1(N2CCCCC2)CCCCC1)c1ccc(F)cc1", "activity change, negative = growth inhibition": "inactive: -6.91%"}, {"smiles": "O=P1(N(CCCl)CCCl)SCCCS1", "activity change, negative = growth inhibition": "inactive: 7.6%"}, {"smiles": "O=C1CCN(Cc2ccccc2)CC1", "activity change, negative = growth inhibition": "inactive: -2.26%"}, {"smiles": "COc1cc(C(=O)NCC2(N(C)C)CCCCC2)ccc1OC(F)F", "activity change, negative = growth inhibition": "inactive: -32.9%"}, {"smiles": "CCOC(=O)N1CCC(Nc2cccc(C)c2)CC1", "activity change, negative = growth inhibition": "inactive: 13.7%"}, {"smiles": "Cc1ccc(NC2(C#N)CCN(Cc3ccccc3)CC2)cc1", "activity change, negative = growth inhibition": "inactive: 8.4%"}, {"smiles": "Fc1ccccc1NC1CCN(Cc2ccccc2)CC1", "activity change, negative = growth inhibition": "inactive: 7.93%"}, {"smiles": "Cc1ccc(C(=O)NCC2(N3CCCCC3)CCCCC2)o1", "activity change, negative = growth inhibition": "inactive: 6.33%"}, {"smiles": "COc1cc(OC)cc(C(=O)NCC2(N3CCCCC3)CCCCC2)c1", "activity change, negative = growth inhibition": "inactive: -13.5%"}, {"smiles": "CN(C)c1ccc(C(=O)NCC2(N3CCCCC3)CCCCC2)cc1", "activity change, negative = growth inhibition": "inactive: -25%"}, {"smiles": "CC(C)(C)c1ccc(C(=O)NCC2(N3CCOCC3)CCCCC2)cc1", "Potency": "active: 16.4 µM"}, {"smiles": "O=C(NCC1(N2CCCCC2)CCCCC1)c1ccco1", "activity change, negative = growth inhibition": "inactive: 10.6%"}, {"smiles": "Cc1ccccc1C(=O)NCC1(N(C)C)CCCCC1", "activity change, negative = growth inhibition": "inactive: 3.07%"}, {"smiles": "CCN1CCC(Nc2cccc(F)c2)CC1", "activity change, negative = growth inhibition": "inactive: -11%"}, {"smiles": "Cc1ccccc1NC1(C#N)CCN(Cc2ccccc2)CC1", "activity change, negative = growth inhibition": "inactive: -3.88%"}, {"smiles": "CCCOc1ccc(C(=O)NCC2(N(C)C)CCCCC2)cc1", "activity change, negative = growth inhibition": "inactive: 34%"}, {"smiles": "O=C(O)C1(Nc2ccccc2)CCN(Cc2ccccc2)CC1", "activity change, negative = growth inhibition": "inactive: -4.69%"}, {"smiles": "CN1CCC(Nc2ccc(F)c(Cl)c2)CC1", "activity change, negative = growth inhibition": "inactive: -16%"}, {"smiles": "CN1CCC(Nc2ccc(Cl)cc2)CC1", "activity change, negative = growth inhibition": "inactive: 8.72%"}, {"smiles": "CCC(CO)(C(=O)OC1CN2CCC1CC2)c1ccccc1", "note": "(configuration not stated)", "activity change, negative = growth inhibition": "inactive: -20.4%"}, {"smiles": "COc1cc(OC)cc(C(=O)NCC2(N3CCOCC3)CCCCC2)c1", "activity change, negative = growth inhibition": "inactive: -0.157%"}, {"smiles": "COc1cccc(C(=O)N(c2cc(C)cc(C)c2)C2CCN(C(=O)OC(C)(C)C)CC2)c1", "Potency": "active: 18.4 µM"}, {"smiles": "COc1ccc(C(=O)NCC2(N3CCOCC3)CCCCC2)cc1OC", "activity change, negative = growth inhibition": "inactive: -6.26%"}, {"smiles": "O=C(O)c1cccc(Nc2c([N+](=O)[O-])cc([N+](=O)[O-])cc2[N+](=O)[O-])c1", "activity change, negative = growth inhibition": "inactive: -4.54%"}, {"smiles": "O=C(OC1CN2CCC1CC2)C1c2ccccc2C=Cc2ccccc21", "note": "(configuration not stated)", "Potency": "active: 16.4 µM"}, {"smiles": "N/C(=N\\O)c1c(N)no[n+]1[O-]", "activity change, negative = growth inhibition": "inactive: -2%"}, {"smiles": "CCOC(=O)N1CCC(Nc2ccc(C)cc2)CC1", "activity change, negative = growth inhibition": "inactive: -27%"}, {"smiles": "CCOC(=O)C(CC)C1=NC(C)(C)Cc2ccccc21.O=[N+]([O-])c1cc([N+](=O)[O-])c(O)c([N+](=O)[O-])c1", "note": "(configuration not stated)", "activity change, negative = growth inhibition": "inactive: -1.33%"}, {"smiles": "N#Cc1ccc(C(=O)NCC2(N3CCCCC3)CCCCC2)cc1", "activity change, negative = growth inhibition": "inactive: -7.38%"}, {"smiles": "CCCN1CCC(Nc2cc(OC)cc(OC)c2)CC1", "activity change, negative = growth inhibition": "inactive: 7.31%"}, {"smiles": "O=c1[nH]c2ccccc2n1C1CCN(C(c2ccccc2)c2nnnn2C2CCCC2)CC1", "note": "(configuration not stated)", "activity change, negative = growth inhibition": "inactive: -85.1%"}, {"smiles": "c1ccc(CN2CCC(Nc3ccccc3)CC2)cc1", "activity change, negative = growth inhibition": "inactive: -9.14%"}, {"smiles": "CN(C)C1(CNC(=O)c2cccc(C#N)c2)CCCCC1", "activity change, negative = growth inhibition": "inactive: 2.15%"}]}]}
